# Measured affinities in a library of Ab-14 heavy chain variants

Data: MIT Lincoln Laboratory AlphaSeq set, Li et al. 2023, doi:10.1038/s41467-023-39022-2, as distributed in FLAb.

All variants were tested on one target, the spike HR2 peptide PDVDLGDISGINAS (SARS-CoV-2).

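Phage display of a naive human antibody library on the peptide gave the parent. The variants were designed computationally from a first round of random CDR variants and then made and measured. Their group label is 14H_GP_Gibbs (GP: Gaussian process model; Gibbs: Gibbs sampling; a sequence that several methods proposed may carry one label only). The assay is AlphaSeq: two haploid yeast populations carry antibody and antigen on their surface. After mating in shaken culture at 30 °C for 16 h, diploids were selected and their barcode pairs sequenced. A regression on co-assayed BCL2-family reference pairs converts the normalised counts of each replicate to an apparent Kd. Mating was done six times.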

Parent: Ab-14, a human scFv built as VH, three GGGGS repeats, VL. Only the CDRs of the heavy chain vary.
VH: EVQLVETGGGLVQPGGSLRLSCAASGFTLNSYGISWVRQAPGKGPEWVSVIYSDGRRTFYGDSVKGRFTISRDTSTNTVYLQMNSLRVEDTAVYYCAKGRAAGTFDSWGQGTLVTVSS
VL: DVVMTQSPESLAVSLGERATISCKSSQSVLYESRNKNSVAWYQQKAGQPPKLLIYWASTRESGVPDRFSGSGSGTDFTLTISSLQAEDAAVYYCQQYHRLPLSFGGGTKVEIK

Substitutions are numbered in sequence along the VH above, starting at 1 (not Kabat).
The read-out is the apparent dissociation constant on a log10 scale (nM): the lower, the stronger.
Averages over replicates are reported, and they cover detected replicates only.
A pair that was not seen in that replicate is written "n.d."; this usually means weak binding, but a binder can also be missed.

| changes | log10 Kd, replicates | mean log10 Kd (nM) | empty controls |
|---|---|---|---|
| S31E S53A A101T | -0.59 / -0.53 / -0.75 / -0.78 / -0.53 / -0.62 | -0.64 | 1 of 18 (2.19) |
| T28S S31E R100Q A101T S107N | -0.40 / -0.73 / -0.38 / -0.55 / -0.79 / -0.11 | -0.50 | 0 of 18 |
| G26S R100Q A101E S107T | 1.38 / n.d. / n.d. / 0.59 / 1.32 / n.d. | 1.10 | 0 of 18 |
| T28S S63N R100V A101N | 0.86 / -0.28 / -0.16 / -0.12 / 0.46 / 0.32 | 0.18 | 0 of 18 |
| T28D R56K S63D A101Q | 0.03 / -0.07 / -0.33 / -0.13 / -0.01 / 0.16 | -0.06 | 0 of 18 |
| T28N G61A A101N S107T | 1.95 / 0.21 / -0.09 / 0.30 / -0.19 / 0.29 | 0.41 | 0 of 18 |
| T28V S31E G61A A101E | 0.43 / 0.07 / 0.25 / 0.13 / 0.35 / 0.68 | 0.32 | 0 of 18 |
| S31E S63A A101N | n.d. / n.d. / n.d. / 0.42 / n.d. / 2.41 | 1.42 | 0 of 18 |
| T28E S53A R100H S107A | -0.36 / -0.35 / -0.43 / -0.35 / -0.35 / -0.25 | -0.35 | 1 of 18 (2.58) |
| T28D S63A R100Q A101T S107Q | n.d. / n.d. / n.d. / n.d. / n.d. / 1.30 | 1.30 | 0 of 18 |
| T28E S63N R100M A101Q | 0.81 / 1.14 / 0.88 / 0.77 / 0.68 / 0.95 | 0.87 | 2 of 18 (2.68) |
| T28N S63A A101L | 1.30 / 1.02 / 1.43 / 1.55 / 1.36 / 1.92 | 1.43 | 1 of 18 (2.52) |
| G26H T28Q S31E F59M A101T | n.d. / 1.29 / 1.54 / 1.04 / 1.61 / 0.87 | 1.27 | 0 of 18 |
| T28N G61A S63R R100H A101E | 0.59 / 0.49 / 0.52 / 0.08 / 0.22 / 0.81 | 0.45 | 0 of 18 |
| T28S S31E S63H A101H | 0.60 / 1.15 / 0.86 / 0.79 / 0.70 / 1.11 | 0.87 | 0 of 18 |
| G61R S63N R100Q A101E S107T | 0.31 / 1.00 / 0.22 / 0.56 / 0.64 / 1.30 | 0.67 | 0 of 18 |
| T28N G61S S63R R100Q A101T | 0.66 / 0.28 / 0.22 / 0.18 / 0.54 / 0.67 | 0.42 | 0 of 18 |
| T28G S31E G61H S107N | 0.88 / 0.76 / 0.38 / 0.58 / 0.13 / 0.43 | 0.53 | 0 of 18 |
| T28N R100V A101N | 0.28 / 0.92 / 1.22 / 1.00 / -0.08 / 0.92 | 0.71 | 0 of 18 |
| T28D S31T F59W R100Q | n.d. / n.d. / n.d. / n.d. / n.d. / n.d. | n.d. | 1 of 18 (1.02) |
| G26K T28N G61H A101T | n.d. / n.d. / n.d. / n.d. / n.d. / n.d. | n.d. | 1 of 18 (2.39) |
| T28W S31D G61H S63K A101T | 1.25 / 0.73 / n.d. / 1.31 / 0.26 / 0.25 | 0.76 | 0 of 18 |
| T28E S31C R56K A101T | 1.16 / n.d. / 1.99 / n.d. / 2.10 / n.d. | 1.75 | 0 of 18 |
| T28Q G61I R100K S107Q | 2.17 / 2.37 / 1.91 / n.d. / n.d. / 1.99 | 2.11 | 0 of 18 |
| T28E R56Q G61A S63D A101T | 0.07 / -0.26 / -0.19 / -0.18 / 0.06 / -0.10 | -0.10 | 0 of 18 |
| G26K T28Q S53A A101Q | -0.35 / -0.51 / -0.99 / -0.32 / -0.75 / -0.47 | -0.56 | 1 of 18 (2.66) |
| G26H T28E S31E G61S A101T | 0.34 / -0.24 / 0.09 / -0.13 / 0.13 / 0.29 | 0.08 | 0 of 18 |
| T28D S31T G61H R100Q | 0.25 / 0.02 / 0.22 / -0.33 / -0.03 / -0.22 | -0.02 | 0 of 18 |
| R56K S63N A101T | n.d. / 0.98 / n.d. / n.d. / 2.02 / 1.00 | 1.33 | 0 of 18 |
| T28D S31M R100N | n.d. / n.d. / n.d. / n.d. / n.d. / n.d. | n.d. | 0 of 18 |
| G26E T28S G61K A101T | 1.09 / 0.99 / 1.93 / 1.38 / 2.24 / 2.53 | 1.69 | 0 of 18 |
| T28D R56K G61D S63N A101T | 0.08 / 0.09 / 0.19 / -0.15 / 0.04 / 0.60 | 0.14 | 0 of 18 |
| T28E S31N S63R R100Q A101T | 0.92 / 1.35 / 0.21 / 0.80 / 0.38 / n.d. | 0.73 | 0 of 18 |
| T28S S31Q R100Q S107V | 0.30 / 0.30 / 0.18 / -0.12 / -0.10 / 0.15 | 0.12 | 0 of 18 |
| T28D S31N A101E S107T | 0.56 / 0.36 / 0.09 / 0.23 / -0.28 / 0.25 | 0.20 | 1 of 18 (0.71) |

Background: pairings of all heavy chain designs with three empty control strains gave a value in 1% of cases (median 2.08, 5th percentile 0.84). Values in that range, when seen in few replicates, are hard to tell from nonspecific mating. Also given: how often the same scFv was detected with the empty control strains, with their mean in brackets.
Values of this round are not directly comparable with the first-round values of the same sequences.
The authors averaged sequences with at least three values out of six and counted those with two or fewer as poor binders.